Experiments:
[1] = target: T1, transmembrane domains of TAS1R (Homo sapiens, UniProt Q7RTX0+Q8TE23, C757R); assay: Identification of candidate sweetness enhancers that bind to the transmembrane domains; format: binding; conditions: identified by the applicants as candidate sweetness enhancers
T1 sequence (Q8TE23 20-839): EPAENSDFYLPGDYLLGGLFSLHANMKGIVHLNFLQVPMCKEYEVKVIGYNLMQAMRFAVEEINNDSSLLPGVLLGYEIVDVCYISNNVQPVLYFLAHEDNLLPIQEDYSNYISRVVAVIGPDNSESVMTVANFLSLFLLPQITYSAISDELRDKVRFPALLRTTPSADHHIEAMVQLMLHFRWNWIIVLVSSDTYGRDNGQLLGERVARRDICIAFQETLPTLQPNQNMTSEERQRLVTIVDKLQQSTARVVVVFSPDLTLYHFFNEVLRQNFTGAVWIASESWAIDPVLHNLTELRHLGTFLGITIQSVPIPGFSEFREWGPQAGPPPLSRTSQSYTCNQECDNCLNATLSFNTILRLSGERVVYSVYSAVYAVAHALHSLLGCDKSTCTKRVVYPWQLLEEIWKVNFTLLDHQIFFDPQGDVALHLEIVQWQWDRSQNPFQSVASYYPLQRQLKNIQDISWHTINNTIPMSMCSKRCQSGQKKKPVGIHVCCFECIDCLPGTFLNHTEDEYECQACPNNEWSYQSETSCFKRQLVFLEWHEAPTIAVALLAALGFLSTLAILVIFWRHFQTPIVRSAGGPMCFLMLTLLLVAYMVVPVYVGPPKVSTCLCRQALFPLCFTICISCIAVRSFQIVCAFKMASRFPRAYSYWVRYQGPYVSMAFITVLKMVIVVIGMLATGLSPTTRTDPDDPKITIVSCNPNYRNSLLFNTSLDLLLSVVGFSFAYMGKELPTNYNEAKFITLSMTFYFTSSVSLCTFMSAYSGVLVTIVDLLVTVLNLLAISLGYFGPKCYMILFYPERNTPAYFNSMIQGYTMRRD
T1 sequence (Q7RTX0 21-852 C757R): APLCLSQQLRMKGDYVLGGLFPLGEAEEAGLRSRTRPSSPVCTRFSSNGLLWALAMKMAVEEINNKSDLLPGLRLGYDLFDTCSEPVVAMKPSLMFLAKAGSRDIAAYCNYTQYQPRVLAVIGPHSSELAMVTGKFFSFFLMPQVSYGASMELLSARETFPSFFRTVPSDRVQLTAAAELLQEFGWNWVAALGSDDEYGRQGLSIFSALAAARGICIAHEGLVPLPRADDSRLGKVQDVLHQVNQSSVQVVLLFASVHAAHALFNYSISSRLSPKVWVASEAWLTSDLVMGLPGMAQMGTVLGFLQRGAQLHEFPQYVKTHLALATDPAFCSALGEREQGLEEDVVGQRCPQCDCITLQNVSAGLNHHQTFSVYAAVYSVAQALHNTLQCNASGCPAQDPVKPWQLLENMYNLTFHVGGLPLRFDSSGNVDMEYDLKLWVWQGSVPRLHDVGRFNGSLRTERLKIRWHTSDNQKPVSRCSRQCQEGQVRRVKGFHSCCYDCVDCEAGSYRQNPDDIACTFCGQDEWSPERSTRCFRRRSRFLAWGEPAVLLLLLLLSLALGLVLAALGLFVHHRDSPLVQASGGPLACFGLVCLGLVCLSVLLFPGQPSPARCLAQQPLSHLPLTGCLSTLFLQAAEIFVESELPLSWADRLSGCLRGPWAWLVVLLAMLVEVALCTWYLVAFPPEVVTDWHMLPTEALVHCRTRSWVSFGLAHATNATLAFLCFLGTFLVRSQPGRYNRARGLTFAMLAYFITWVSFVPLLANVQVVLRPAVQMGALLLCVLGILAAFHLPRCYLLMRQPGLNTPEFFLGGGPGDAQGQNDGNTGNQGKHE

[2] = test system: HEK293T/Gα16gust44 cells; assay: Fluo-4 calcium assay, negative control cells expressing Gα16gust44 only (mock transfected); format: cell-based, human; conditions: for G16gust44 (NEG. CONTROL) AVG: p-ETBZ 100 micromolar, NDHC 1 mM, NarDHC 1 mM, cyclamate 5 mM, three replicates
[3] = test system: sweet sensitive panelists; assay: Ranking test of sweetness isointensity (R-index), sensory panel
[4] = target: T2, T1R2-TMD (Homo sapiens, UniProt Q8TE23); assay: cell-based
T2 sequence (Q8TE23 564-839): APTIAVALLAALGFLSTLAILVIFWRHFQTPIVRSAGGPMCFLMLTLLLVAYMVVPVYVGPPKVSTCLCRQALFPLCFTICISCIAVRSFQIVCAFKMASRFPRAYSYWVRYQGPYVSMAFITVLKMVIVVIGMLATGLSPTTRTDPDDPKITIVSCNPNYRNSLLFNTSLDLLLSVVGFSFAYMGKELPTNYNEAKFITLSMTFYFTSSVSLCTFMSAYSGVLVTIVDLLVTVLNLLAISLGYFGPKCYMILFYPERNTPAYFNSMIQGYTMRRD

[5] = 2 ppm NDHC in water vs 1% sucrose

## COc1ccc(CCC(=O)c2c(O)cc(O[C@@H]3O[C@H](CO)[C@@H](O)[C@H](O)[C@H]3O[C@@H]3O[C@@H](C)[C@H](O)[C@@H](O)[C@H]3O)cc2O)cc1O [NDHC, neohesperidin dihydrochalcone]
[1]
  binding to the transmembrane domains of TAS1R: bind to the transmembrane domains of TAS1R
[2]; calcium chloride 2 mM, sucralose 0.5 mM, aspartame 0.85 mM, perillartine 50 μM, cinnamonitrile 100 μM, cyclamate 1 mM, NDHC 0.33 mM, six replicates
  Neg. control (mock transfection) AVG: −524 RFU
[2]
  G16gust44 (NEG. CONTROL) AVG: 0.2304 dF/F
[3]; 2 ppm NDHC in water
  sweetness isointensity to sucrose: 0.5 % sucrose
[3]; 2 ppm NDHC in water vs 0.5% sucrose
  NDHC sample sweetness: isosweet
[3]; [5]
  NDHC sample sweetness: less sweet
  R-index: 5%

## CCOc1ccc(C=O)cc1 [p-ethoxybenzaldehyde]
[4]
  EC50: 124 µM
[2]; 100 μM p-ethoxybenzaldehyde, six replicates
  AVERAGE fluorescence increase, Gα16gust44 ONLY (neg. control): 46.835 RFU
[2]
  G16gust44 (NEG. CONTROL) AVG: 0.1592 dF/F
[3]; 0.5% sucrose sample ranked against 100 ppm p-ethoxybenzaldehyde in water, nose clips
  R-index: 63%
[3]; 0.5% sucrose sample ranked against 150 ppm p-ethoxybenzaldehyde in water, nose clips
  R-index: 3%
[3]; 75 ppm in water vs 0.5% sucrose, nose clips
  R-index: 7%
[3]; 75 ppm in water vs 1% sucrose, nose clips
  R-index: 0%
[3]; 75 ppm p-ethoxybenzaldehyde in 7% sucrose vs 7% sucrose
  R-index: 74%
[3]; 75 ppm p-ethoxybenzaldehyde in 7% sucrose vs 8% sucrose
  R-index: 36%
[3]; 75 ppm p-ethoxybenzaldehyde in 7% sucrose vs 9% sucrose
  R-index: 12%
[3]; 75 ppm p-ethoxybenzaldehyde in 7% sucrose vs 10% sucrose
  R-index: 1%
[3]; 75 ppm p-ethoxybenzaldehyde in 7% sucrose vs 11% sucrose
  R-index: 0%
[3]; 100 ppm in water vs 150 ppm cyclamate
  R-index: 51%
[3]; 100 ppm in water vs 200 ppm cyclamate
  R-index: 17%
[3]; 100 ppm in water vs 250 ppm cyclamate
  R-index: 5%
[3]; 100 ppm p-ethoxybenzaldehyde in 1700 ppm cyclamate vs 1700 ppm cyclamate
  R-index: 87%
[3]; 100 ppm p-ethoxybenzaldehyde in 1700 ppm cyclamate vs 1900 ppm cyclamate
  R-index: 80%
[3]; 100 ppm p-ethoxybenzaldehyde in 1700 ppm cyclamate vs 2100 ppm cyclamate
  R-index: 50%
[3]; 100 ppm p-ethoxybenzaldehyde in 1700 ppm cyclamate vs 2300 ppm cyclamate
  R-index: 22%
[3]; 100 ppm p-ethoxybenzaldehyde in 1700 ppm cyclamate vs 2500 ppm cyclamate
  R-index: 17%
[3]; 600 ppm (A) vs 700 ppm (B) p-ethoxybenzaldehyde in water
  R-index: 74%
[3]; 700 ppm (A) vs 800 ppm (B) p-ethoxybenzaldehyde in water
  R-index: 72%
[3]; 800 ppm (A) vs 900 ppm (B) p-ethoxybenzaldehyde in water
  R-index: 67%
[3]; 900 ppm (A) vs 1000 ppm (B) p-ethoxybenzaldehyde in water
  R-index: 73%
